Test system: CellSensor® ARE-bla Hep G2 cell line
Assay: cell-based ARE β-lactamase reporter assay
Design: species or system human

Compound: O=C(O)[C@@H]1CCCC[C@@H]1C(=O)N1CCc2ccccc2[C@@H]1CN1C(=O)c2ccccc2C1=O [LH601B]
- ARE-inducing activity (in words): inactive

Source: US10106502B2, “Direct inhibitors of Keap1-Nrf2 interaction as antioxidant inflammation modulators” (Rutgers, The State University of New Jersey, priority 2011, dated 2018)
